{"sequences": {"note": "Sequences of proteins named here, by UniProt entry; tags and fusion partners are left off. A change or cut given only in a name is not applied to a line headed by its entry.", "UniProt P04626": "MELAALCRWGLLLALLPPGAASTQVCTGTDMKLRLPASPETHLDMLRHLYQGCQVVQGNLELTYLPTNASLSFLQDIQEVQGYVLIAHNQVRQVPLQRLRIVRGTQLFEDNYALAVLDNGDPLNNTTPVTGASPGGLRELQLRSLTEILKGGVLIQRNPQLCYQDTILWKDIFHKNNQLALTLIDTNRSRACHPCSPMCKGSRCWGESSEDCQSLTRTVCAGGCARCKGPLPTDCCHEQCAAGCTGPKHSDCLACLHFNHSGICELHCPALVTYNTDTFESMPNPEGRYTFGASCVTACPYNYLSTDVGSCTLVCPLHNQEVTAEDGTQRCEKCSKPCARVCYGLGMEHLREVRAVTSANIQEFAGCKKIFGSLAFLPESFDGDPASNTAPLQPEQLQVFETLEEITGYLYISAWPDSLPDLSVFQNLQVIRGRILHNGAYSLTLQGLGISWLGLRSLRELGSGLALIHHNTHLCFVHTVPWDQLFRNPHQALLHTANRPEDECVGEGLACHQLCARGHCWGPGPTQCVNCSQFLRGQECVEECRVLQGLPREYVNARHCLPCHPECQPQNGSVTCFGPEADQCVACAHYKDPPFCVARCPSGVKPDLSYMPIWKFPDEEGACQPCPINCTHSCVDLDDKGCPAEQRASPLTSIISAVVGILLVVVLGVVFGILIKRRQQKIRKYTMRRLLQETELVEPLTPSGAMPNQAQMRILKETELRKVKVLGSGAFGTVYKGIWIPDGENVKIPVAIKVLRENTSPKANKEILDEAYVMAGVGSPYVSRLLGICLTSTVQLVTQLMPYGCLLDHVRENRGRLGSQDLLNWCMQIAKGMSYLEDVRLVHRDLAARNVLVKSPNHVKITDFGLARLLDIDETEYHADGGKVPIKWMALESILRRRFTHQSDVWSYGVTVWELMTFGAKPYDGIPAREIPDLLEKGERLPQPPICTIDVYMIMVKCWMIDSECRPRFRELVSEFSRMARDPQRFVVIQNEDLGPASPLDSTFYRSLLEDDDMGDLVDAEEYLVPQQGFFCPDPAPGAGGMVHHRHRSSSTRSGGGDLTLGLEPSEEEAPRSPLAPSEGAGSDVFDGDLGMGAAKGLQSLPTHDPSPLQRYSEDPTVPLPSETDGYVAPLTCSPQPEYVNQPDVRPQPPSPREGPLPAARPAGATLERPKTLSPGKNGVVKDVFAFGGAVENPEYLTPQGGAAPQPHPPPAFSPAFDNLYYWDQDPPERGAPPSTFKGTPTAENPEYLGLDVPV", "UniProt P00533": "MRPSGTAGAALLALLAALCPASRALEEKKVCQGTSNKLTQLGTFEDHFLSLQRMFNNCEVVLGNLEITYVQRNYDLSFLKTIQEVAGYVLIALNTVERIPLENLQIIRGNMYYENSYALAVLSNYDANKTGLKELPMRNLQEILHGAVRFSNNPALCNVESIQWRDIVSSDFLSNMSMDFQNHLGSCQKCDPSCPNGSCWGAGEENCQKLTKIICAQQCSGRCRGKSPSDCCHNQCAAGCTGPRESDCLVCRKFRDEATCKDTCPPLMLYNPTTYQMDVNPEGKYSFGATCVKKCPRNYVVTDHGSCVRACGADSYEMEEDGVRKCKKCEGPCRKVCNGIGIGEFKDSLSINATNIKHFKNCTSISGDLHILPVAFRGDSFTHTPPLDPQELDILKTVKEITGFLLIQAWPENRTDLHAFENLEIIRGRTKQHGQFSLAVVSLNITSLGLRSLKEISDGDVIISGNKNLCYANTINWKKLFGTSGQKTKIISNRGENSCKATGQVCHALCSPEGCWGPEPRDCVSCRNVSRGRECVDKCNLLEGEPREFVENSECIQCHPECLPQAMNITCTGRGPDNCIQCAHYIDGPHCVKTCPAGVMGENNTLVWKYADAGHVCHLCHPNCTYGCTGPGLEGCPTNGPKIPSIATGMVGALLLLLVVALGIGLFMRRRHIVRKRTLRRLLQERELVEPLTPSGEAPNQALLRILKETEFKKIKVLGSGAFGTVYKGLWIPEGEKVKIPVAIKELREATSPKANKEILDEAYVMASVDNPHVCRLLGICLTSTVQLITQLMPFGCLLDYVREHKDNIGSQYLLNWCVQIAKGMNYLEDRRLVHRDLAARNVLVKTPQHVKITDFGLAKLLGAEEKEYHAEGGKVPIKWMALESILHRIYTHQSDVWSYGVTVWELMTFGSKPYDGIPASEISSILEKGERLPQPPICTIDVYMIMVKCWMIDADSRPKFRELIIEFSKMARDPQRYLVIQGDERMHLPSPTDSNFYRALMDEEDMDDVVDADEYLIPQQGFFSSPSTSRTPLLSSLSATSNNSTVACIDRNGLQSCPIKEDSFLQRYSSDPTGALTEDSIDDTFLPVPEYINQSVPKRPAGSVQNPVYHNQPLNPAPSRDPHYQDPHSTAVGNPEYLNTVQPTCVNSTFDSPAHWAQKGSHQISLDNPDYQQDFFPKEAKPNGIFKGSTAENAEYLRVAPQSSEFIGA"}, "source": "ChEMBL document CHEMBL1146682", "about": "“Synthesis and SAR of potent EGFR/erbB2 dual inhibitors” (Bioorg Med Chem Lett, 2004)", "molecular_target": "Epidermal growth factor receptor and ErbB2 (HER1 and HER2) (Homo sapiens, UniProt P04626+P00533)", "assay": "In vitro efficacy (average) against HN5 (EGFR) and BT474 (erbB2) tumor cell proliferation", "format": "functional", "data": [{"smiles": "CS(=O)(=O)CCNCCCCOc1ccc2ncnc(Nc3ccc4c(cnn4Cc4cccc(F)c4)c3)c2c1", "values": [{"measurement": "IC50", "value": 540, "unit": "nM"}]}]}
